These are literature values, as cited in patent publication US5776927A, “Methionine sulfone and S-substituted cysteine sulfone derivatives as enzyme inhibitors” (Corvas International, Inc., priority 1994, dated 1998).

For this series, the target named is human alphathrombin. Conditions: literature values (footnotes c, d of Table 4); cited from earlier work.

For the compound `CC1CNc2c(cccc2S(=O)(=O)N[C@@H](CCCNC(=N)N)C(=O)N2CC[C@@H](C)C[C@@H]2C(=O)O)C1` (stereo partly drawn) [Argatroban, 2R,4R-4-methyl-1-[N-2-(3-methyl-1,2,3,4-tetrahydro-8-quinolinesulfonyl)-L-argininal]-2-piperdinecarboxylic acid], the Ki (commonly the dissociation constant of the complex between target and ligand, obtained from inhibition or displacement) was 0.019 µM.
